This test deals with hP2X7R (Homo sapiens, UniProt Q99572). Nature of the test: Calcium influx assay in HEK-hP2X7 cells. The class given is cell-based. The conditions noted are these: HEK cells expressing hP2X7R, BzATP 100 μM; mean ± standard deviation, n >3. As for the experimental part:
Human monocytic leukaemia cells (THP-1) were obtained from the American Type Culture Collection (ATCC) and were grown in RPMI 1640 medium (Invitrogen), supplemented with penicillin (100 U/mL), streptomycin (100 μg/mL) and 10% (v/v) heat-inactivated fetal bovine serum (FBS). HEK293T cells transfected with cDNA for the human (HEK-hP2X7) or mouse P2X7 (HEK-mP2X7) receptor (a kind gift from Dr […] Stokes and Prof. Jim Wiley) were cultured in DMEM/F12 with 10% FBS and 500 μg/mL G418 (all from Invitrogen). […] HEK-hP2X7 or HEK-mP2X7 cells were harvested using trypsin (0.05%) with EDTA (0.03%). Cells were loaded with Fluo-4 AM (1 μM) in HBSS buffer at 37° C. for 30 min, inverting every 5 mins. Cells were then washed twice with assay buffer (NaCl 137 mM, KCl 1.8 mM, KH2PO4 1.2 mM, MgSO4 1.2 mM, NaHCO3 5.2 mM, CaCl2 1.6 mM, glucose 6 mM, HEPES 20 mM, pH 7.3), centrifuging between washes at 1200 rpm for 5 mins. Cells were resuspended a final time in assay buffer and seeded into black-walled 96 well clear-bottom plates at a density of 5×10^4 cells/well. […] Fluorescence was then monitored every 5 s for 5 min total monitoring. […] Data were normalized to the peak response seen with BzATP alone and the basal response seen due to injection of vehicle (see FIG. 3).

Chains of the proteins cited; added tags and fusions are not shown. Lines headed by an entry give the natural chain unless they say otherwise; changes in a name come on top.
UniProt Q99572: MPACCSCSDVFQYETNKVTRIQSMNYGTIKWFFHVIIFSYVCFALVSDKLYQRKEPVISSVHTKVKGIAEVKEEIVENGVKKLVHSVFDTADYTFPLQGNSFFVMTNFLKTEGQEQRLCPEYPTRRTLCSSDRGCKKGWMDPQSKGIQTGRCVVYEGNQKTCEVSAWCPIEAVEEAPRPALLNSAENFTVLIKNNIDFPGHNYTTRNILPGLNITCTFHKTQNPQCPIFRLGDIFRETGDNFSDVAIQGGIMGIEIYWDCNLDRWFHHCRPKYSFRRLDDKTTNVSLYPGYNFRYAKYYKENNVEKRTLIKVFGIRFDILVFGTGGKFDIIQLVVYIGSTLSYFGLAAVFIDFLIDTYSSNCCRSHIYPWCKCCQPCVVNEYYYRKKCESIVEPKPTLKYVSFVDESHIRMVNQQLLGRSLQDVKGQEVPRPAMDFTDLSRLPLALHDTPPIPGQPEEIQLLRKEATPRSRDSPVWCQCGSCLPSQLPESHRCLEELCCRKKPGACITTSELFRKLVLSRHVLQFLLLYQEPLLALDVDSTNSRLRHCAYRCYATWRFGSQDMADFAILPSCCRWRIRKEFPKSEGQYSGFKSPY

For `COc1ccc(Cl)c(C(=O)NCC23CC4(F)CC(F)(CC(F)(C4)C2)C3)c1` [Compound 1, 2-Chloro-N-((3,5,7-trifluoroadamantan-1-yl)methyl)-5-methoxybenzamide], the IC50 is 24.5 ± 5.5 nM.

A word on the IC50: it is the concentration needed to halve the response being measured.
